# Laboratory results from US20220362163A1, “METHODS AND COMPOSITIONS FOR CANCER TREATMENT USING NANOPARTICLES CONJUGATED WITH MULTIPLE LIGANDS FOR BINDING RECEPTORS ON NK CELLS” (The University of North Carolina at Chapel Hill, priority 2019, published 2022).
# Columns and labels:
# [1] = Zeta potential in 0.1M PBS; format: physicochemical
# [2] = Intensity-average diameter and polydispersity index; format: physicochemical
# A431 tumor = A431 tumor model in T-cell deficient Nu mice; conditions: i.v. at 6, 8, 10 days post-inoculation
substance,measurement,setting,value
cetuximab [α-EGFR],Mean zeta potential in 0.1M PBS,[1],−0.76 ± 0.87 mV
same,Mean intensity-average diameter,[2],14 ± 1 nm
same,effect on tumor growth,A431 tumor,minimal effect
